From PubChem BioAssay AID1346428 (National Center for Advancing Translational Sciences (NCATS), 2018) come the findings set out here.

The chains behind the UniProt entries cited, without tags or fusion partners.
UniProt O75388, whole entry: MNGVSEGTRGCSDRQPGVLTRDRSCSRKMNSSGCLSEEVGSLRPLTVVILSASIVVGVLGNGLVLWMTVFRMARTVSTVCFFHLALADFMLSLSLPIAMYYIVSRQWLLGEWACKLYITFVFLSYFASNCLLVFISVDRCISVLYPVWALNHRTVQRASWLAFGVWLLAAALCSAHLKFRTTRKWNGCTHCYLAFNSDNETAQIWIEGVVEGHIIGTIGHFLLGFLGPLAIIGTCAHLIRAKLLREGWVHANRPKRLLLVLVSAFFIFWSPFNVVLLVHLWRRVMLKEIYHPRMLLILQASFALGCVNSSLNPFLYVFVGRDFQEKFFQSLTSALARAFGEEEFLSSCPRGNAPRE

This is a selection; strong and weak results do not stand in their true shares. Some results for these compounds are left out of this collection, so the calls shown say nothing about other tests. Calls of active or inactive are those of the source.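 How the source made its calls: active means activation of at least 60% and not above a set upper limit (about 1 call in 100 departs from these limits); inconclusive means activation of 40% to 60%, or above that upper limit; inactive means activation under 40%.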

This test deals with Probable G-protein coupled receptor 32 (Homo sapiens) (UniProt O75388). The test can be described thus: qHTS for Agonists of Human Resolvin D1 Receptor DRV1. Further: 0% is about no effect. As to conditions: CHO-K1 GPR32 beta-arrestin PathHunter luminescence, 90 min; at 76.9 µM; stronger effect = higher value; zero percent set by DMSO-only wells. For orientation: qHTS replaces the single test concentration by a dilution series.
Regarding `COc1ccc(C(=O)NCC2(N(C)C)CCCCC2)cc1Cl`, the activation is inactive: -0.215%.
Then `CC(C)Oc1ccc(C(=O)NCC2(N(C)C)CCCCC2)cc1`, with inactive: 12.7%; and `Cc1cccc(C(=O)NCC2(N(C)C)CCCCC2)c1`, with inactive: -0.558%; and `COc1cc(C(=O)NCC2(N(C)C)CCCCC2)cc(OC)c1OC`, with inactive: 2.23%.
As for `CC(C)COc1ccc(C(=O)NCC2(N(C)C)CCCCC2)cc1`, the figure is inactive: 0.787%; as for `COc1cccc(C(=O)NCC2(N3CCOCC3)CCCCC2)c1`, inactive: 3.2%.
In the case of `CN(C)C1(CNC(=O)c2ccccc2F)CCCCC1`, the activation was inactive: 4.51%.
Then `CN(C)C1(CNC(=O)c2cccc(Cl)c2)CCCCC1`, with inactive: -1.21%; and `CCOc1cccc(C(=O)NCC2(N(C)C)CCCCC2)c1`, with inactive: 15%.
`CCCCOc1ccccc1C(=O)NCC1(N(C)C)CCCCC1`: the activation was inactive: 9.55%.
Then `CN(C)C1(CNC(=O)c2ccccc2[N+](=O)[O-])CCCCC1`, with inactive: -7.48%.
